Source: patent US11318134B2, “Benzamide compounds” (priority 2018, dated 2022)
pIC50, pKd: −log10 of the molar value.

Sequences of proteins named here, by UniProt entry; tags and fusion partners are left off.
UniProt P10415, whole entry: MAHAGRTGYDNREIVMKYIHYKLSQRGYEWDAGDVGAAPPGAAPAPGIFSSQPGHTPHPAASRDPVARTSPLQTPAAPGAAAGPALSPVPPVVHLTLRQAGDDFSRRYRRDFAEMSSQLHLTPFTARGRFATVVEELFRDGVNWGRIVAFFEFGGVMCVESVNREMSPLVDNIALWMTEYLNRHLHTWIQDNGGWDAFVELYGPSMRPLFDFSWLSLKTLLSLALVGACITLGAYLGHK

Legend:
Bcl-2 [1] = target: T1, Bcl-2 (Homo sapiens (Human), UniProt P10415); assay: Bcl-2 protein family binding assay (Bcl2scan platform), Bcl-2; settings: BIM peptide ligand, 11-point dilution, read-out: Bc1-2 Kd (nm)
Description: E. coli were grown to log-phase and infected with T7 phage from a frozen stock (multiplicity of infection=0.4) and incubated with shaking at 32° C. until lysis (90-150 minutes). The lysates were centrifuged (5,000×g) and filtered (0.2 μm) to remove cell debris. […] The liganded beads were blocked with excess biotin and washed with blocking buffer (SeaBlock (Pierce), 1% BSA, 0.05% Tween 20, 1 mM DTT) to remove unbound ligand and to reduce non-specific phage binding. […] Test compounds were prepared as 100× stocks in 100% DMSO. Kds were determined using an 11-point 3-fold compound dilution series with one DMSO control point. […] The compounds were then diluted directly into the assays such that the final concentration of DMSO was 0.9%. All reactions performed in polypropylene 384-well plates. Each was a final volume of 0.02 ml. […] The BCL2 concentration in the eluates was measured by qPCR. Binding constants (Kds) were calculated with a standard dose-response curve using the Hill equation:
[formula] The Hill Slope was set to −1. Curves were fitted using a non-linear least square fit with the Levenberg-Marquardt algorithm.

Bcl-2 [2] = target: T1, Bcl-2; assay: Bcl-2 HTRF assay (FAM-Bak peptide); format: binding; settings: 4 nM Bcl-2, 100 nM FAM-Bak peptide, read-out: Bc1-2 IC50
[3] = tested on: HIV-1 infected primary CD4 T cells; settings: HIV-1 vs mock infected, IncuCyte Caspase 3/7, FIG. 5

Structure (SMILES) | pKd (Bcl-2 [1]) | pIC50 (Bcl-2 [2]) | selectivity in killing HIV vs. mock infected cells [3]
CC1(C)CCC(c2ccc(Cl)cc2)=C(CN2CCN(c3ccc(C(=O)NS(=O)(=O)c4ccc(N[C@H](CCN5CCOCC5)CSc5ccccc5)c(S(=O)(=O)C(F)(F)F)c4)cc3)CC2)C1 [ABT-263, reference compound] | 7.00 to 8.00 | ≥ 8.00 | –
CC1(C)CCC(CN2CCN(c3ccc(C(=O)NS(=O)(=O)c4ccc(NC[C@H]5CC[C@](C)(O)CC5)c([N+](=O)[O-])c4)c(Oc4cnc5[nH]ccc5c4)c3)CC2)=C(C23CC(C(F)F)(C2)C3)C1 [Example 34, 2-((1H-pyrrolo[2,3-b]pyridin-5-yl)oxy)-4-(4-((2-(3-(difluoromethyl)bicyclo[1.1.1]pentan-1l-yl)-4,4-dimethylcyclohex-1-en-1-yl)methyl)piperazin-1-yl)-N-((4-((((1r,4r)-4-hydroxy-4-methylcyclohexyl)methyl)amino)-3-nitrophenyl)sulfonyl)benzamide] | – | – | exhibit selectivity in killing HIV vs. mock infected cells
CC1(C)CCC(CN2CCN(c3ccc(C(=O)NS(=O)(=O)c4ccc(OCC5(F)CCOCC5)c([N+](=O)[O-])c4)c(Oc4cnc5[nH]ccc5c4)c3)CC2)=C(C23CC(C(F)F)(C2)C3)C1 [Example 36, 2-((1H-pyrrolo[2,3-b]pyridin-5-yl)oxy)-4-(4-((2-(3-(difluoromethyl)bicyclo[1.1.1]pentan-1-yl)-4,4-dimethylcyclohex-1-en-1-yl)methyl)piperazin-1-yl)-N-((4-((4-fluorotetrahydro-2H-pyran-4-yl)methoxy)-3-nitrophenyl)sulfonyl)benzamide] | – | – | exhibit selectivity in killing HIV vs. mock infected cells
